Measurements published in ChEMBL document CHEMBL1147557, “Glycosyltransferase activity can be selectively modulated by chemical modifications of acceptor substrates” (Bioorg Med Chem Lett, 2004).

System: Alpha-(1,3)-fucosyltransferase 6 (Homo sapiens)
Experiment: Kinetic parameter of […] by fucosyltransferase 6 alpha 1,3

Vmax / Km: 2.8
Structure (SMILES): CO[C@@H]1O[C@@H](CO)[C@@H](O[C@@H]2O[C@@H](CO)[C@H](O)[C@H](O)[C@@H]2O)[C@H](O)[C@@H]1NC(C)=O
